# According to patent US11345678B2, “Benzopyrazole compound used as RHO kinase inhibitor” (MEDSHINE DISCOVERY INC., priority 2018, dated 2022):
# By UniProt entry, the sequences of proteins in these tests, tags left out.
# UniProt O75116, whole entry: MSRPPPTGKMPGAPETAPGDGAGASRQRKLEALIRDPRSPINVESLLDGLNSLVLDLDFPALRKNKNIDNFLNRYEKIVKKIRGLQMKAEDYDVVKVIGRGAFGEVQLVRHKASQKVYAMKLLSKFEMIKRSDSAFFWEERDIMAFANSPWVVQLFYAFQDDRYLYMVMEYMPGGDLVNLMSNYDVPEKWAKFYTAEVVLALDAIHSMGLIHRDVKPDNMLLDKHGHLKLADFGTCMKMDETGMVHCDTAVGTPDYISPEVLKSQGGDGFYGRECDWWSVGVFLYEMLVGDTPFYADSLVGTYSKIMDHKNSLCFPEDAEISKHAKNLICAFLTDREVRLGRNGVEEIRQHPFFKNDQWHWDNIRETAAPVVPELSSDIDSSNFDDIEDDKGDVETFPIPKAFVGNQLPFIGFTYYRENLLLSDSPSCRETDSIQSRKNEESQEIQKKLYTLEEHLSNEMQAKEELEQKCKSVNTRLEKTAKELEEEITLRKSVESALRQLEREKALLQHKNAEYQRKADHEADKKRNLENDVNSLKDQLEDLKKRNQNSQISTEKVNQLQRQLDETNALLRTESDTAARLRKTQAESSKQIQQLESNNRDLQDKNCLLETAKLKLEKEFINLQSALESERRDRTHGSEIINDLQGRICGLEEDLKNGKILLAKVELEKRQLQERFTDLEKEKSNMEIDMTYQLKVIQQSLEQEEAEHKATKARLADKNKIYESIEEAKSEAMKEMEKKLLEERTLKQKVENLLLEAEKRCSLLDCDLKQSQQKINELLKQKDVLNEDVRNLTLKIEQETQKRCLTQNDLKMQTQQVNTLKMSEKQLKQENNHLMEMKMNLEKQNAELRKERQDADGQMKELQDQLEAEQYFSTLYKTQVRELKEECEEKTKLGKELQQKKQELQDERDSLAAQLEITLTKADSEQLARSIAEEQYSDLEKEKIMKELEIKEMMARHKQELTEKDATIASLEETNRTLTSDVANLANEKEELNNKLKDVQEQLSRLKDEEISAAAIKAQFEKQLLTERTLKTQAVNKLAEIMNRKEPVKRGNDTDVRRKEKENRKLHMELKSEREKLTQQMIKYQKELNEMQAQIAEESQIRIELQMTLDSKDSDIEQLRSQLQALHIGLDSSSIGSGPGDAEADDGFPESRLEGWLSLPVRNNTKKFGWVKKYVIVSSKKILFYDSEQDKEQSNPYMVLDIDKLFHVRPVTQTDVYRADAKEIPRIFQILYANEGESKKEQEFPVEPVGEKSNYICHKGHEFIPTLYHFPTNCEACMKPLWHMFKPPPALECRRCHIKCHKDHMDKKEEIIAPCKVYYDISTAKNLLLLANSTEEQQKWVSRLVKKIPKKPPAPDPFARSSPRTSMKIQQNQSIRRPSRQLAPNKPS
# Biological target: ROCK2 (Homo sapiens (Human), UniProt O75116)
# Test: In vitro inhibitory activity against ROCK protein kinase (33P-ATP filter-binding), ROCK2
# Settings: read-out: IC50 against ROCK2, 1 nM ROCK protein kinase, 20 μM Long S6 Kinase substrate peptide
# Protocol: 1. In Vitro Evaluation of the Inhibitory Activity Against ROCK Protein Kinase
# Experimental purpose: to detect the inhibitory IC50 value of the compound against ROCK protein kinase.
# Assay buffer solution: 20 mM 4-hydroxyethylpiperazine ethanesulfonic acid (pH 7.5), 10 mM magnesium chloride, 1 mM ethylene glycol-bis-(2-aminoethyl)tetraacetic acid, 0.02% polyethylene glycol monododecyl ether, 0.02 mg/mL bovine serum albumin, 0.1 mM sodium vanadate, 2 mM dithiothreitol, 1% DMSO.
# The freshly prepared buffer solution was added to ROCK protein kinase substrate (Long S6 Kinase substrate peptide), at a concentration of 20 μM, then 1 nM ROCK protein kinase was added thereto and stirred evenly. Echo550 was used to add a series of DMSO dilutions containing the test compound (starting from 10 μM, serially diluted by 3 times), the solution was pre-incubated at room temperature for 20 minutes, then ^33P-ATP (radiation intensity 10 μCi/μL) was added to initiate the reaction, and the reaction was performed at room temperature for two hours. Then the solution was filtered by P81 ion exchange paper (Whatman #3698-915) and washed with 0.75% phosphoric acid. The radiation intensity was determined by Filter-Binding method.
# The protein kinase inhibitory activity of the compound was expressed as the remaining protein kinase activity relative to the blank substrate (simply DMSO). […]
smiles,measurement,value
COc1cccc(C(CN)NC(=O)c2cc(-c3ccc4[nH]nc(C)c4c3)ccn2)c1 (stereo not shown) [Compound 40],IC50,2 nM
